Data published in patent publication US8829033B2, “N-benzylamide substituted derivatives of 2-(acylamido)acetic acid and 2-(acylamido)propionic acids: potent neurological agents” (The University of North Carolina at Chapel Hill, priority 2009, dated 2014).

Columns and labels:
Rat [1] = assay: Maximal electroshock seizure (MES) test, rat (po); format: in vivo; settings: orally
Rat [2] = assay: Behavioral toxicity, rat (po); format: in vivo; settings: Table b502, orally

SMILES	ED50 (Rat [1])	Rat (po) Tox, TD50 (Rat [2])
COC[C@@H](NC(C)=O)C(=O)NCc1ccc(OCc2ccccc2F)cc1 [(R)-21, (R)—N-4-(2-Fluorobenzyloxy)benzyl 2-Acetamido-3-methoxypropionamide]	11 mg/kg	
COC[C@@H](NC(C)=O)C(=O)NCc1ccc(OCc2ccc(F)cc2)cc1 [(R)-22, (R)—N-4-(4-Fluorobenzyloxy)benzyl 2-Acetamido-3-methoxypropionamide]	5.8 mg/kg	>500 mg/kg
